Data reported in PubChem BioAssay AID1415 (NMMLSC, 2008).
Where “and” joins values, the source holds several entries; their conditions need not be identical. Identical values can stand only once. The entries are a selection whose mix differs from that of the whole data set. Calls of active or inactive are those of the source. Cut-off read from the data, not from the text of the source: active = binding response below about 49% or above about 150%; inactive = in between.

Amino acid sequences for entries named in this document (tags omitted).
UniProt P09471, whole entry, looked up: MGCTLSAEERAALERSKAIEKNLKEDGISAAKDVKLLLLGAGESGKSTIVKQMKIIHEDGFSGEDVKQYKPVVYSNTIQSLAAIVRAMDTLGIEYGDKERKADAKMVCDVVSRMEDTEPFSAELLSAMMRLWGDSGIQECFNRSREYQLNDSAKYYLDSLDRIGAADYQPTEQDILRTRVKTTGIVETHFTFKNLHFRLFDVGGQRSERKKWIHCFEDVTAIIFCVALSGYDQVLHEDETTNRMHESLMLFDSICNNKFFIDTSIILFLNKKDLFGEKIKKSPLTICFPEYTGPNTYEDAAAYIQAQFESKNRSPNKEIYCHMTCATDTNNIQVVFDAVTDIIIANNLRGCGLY

Biological target: Guanine nucleotide-binding protein G(o) subunit alpha (Homo sapiens) (UniProt P09471)
Assay: modulators of RGS4 binding to Galphao, primary screen, biochemical, multiplexed bead flow cytometry (AID 1415);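 note: fluorescent Galphao activated with aluminum fluoride binding bead-coupled RGS4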
Conditions: at 10 µM, actives lie on both sides

| SMILES | binding response (% of control) |
| --- | --- |
| CCC(=O)N1C2C3N(C(=O)CC)C1C1N(C(=O)CC)C(C(N1C(=O)CC)N3C(=O)CC)N2C(=O)CC | inactive: 115% |
| COC(=O)c1cc2c(s1)N=C(c1ccccc1)N(C)P2(=O)N1CCOCC1 (centres undefined) | inactive: 100% |
| Cc1ccc(OP(=O)(Nc2ccccn2)Oc2ccc(C)cc2)cc1 | inactive: 101% |
| CC(=O)NC(SC(=S)N(CC(C)C)CC(C)C)C(Cl)(Cl)Cl (centres undefined) | inactive: 106% |
| Cc1ccccc1OP(=O)(Nc1ccccn1)Oc1ccccc1C | inactive: 99.3% |
| O=c1c2cc([N+](=O)[O-])ccc2[nH]c2c([N+](=O)[O-])cc([N+](=O)[O-])cc12 | inactive: 98.7% |
| CN(C)C(=O)Oc1noc2ccccc12 | inactive: 96.5% |
| c1ccc(-c2nn[nH]n2)c(-c2nn[nH]n2)c1 | inactive: 79.2% |
| CCOC(=O)NC(Sc1ccccc1)C(Cl)(Cl)Cl (centres undefined) | inactive: 78.7% |
| Cc1ccc(NP(=O)(Oc2cccc(C)c2)Oc2cccc(C)c2)nc1 | inactive: 101% |
| O=C(NC1CCS(=O)(=O)C1)NP(=S)(Oc1ccccc1)Oc1ccccc1 (centres undefined) | inactive: 99.8% |
| CCNC(=S)/N=C(\N)N[N+](=O)[O-] | inactive: 98.3% |
| C[C@H]1OP(=O)(Oc2ccccc2)C[C@@H]2O[C@@H]21 (some centres undefined) | inactive: 102% |
| C[C@@H]1C=CCP(=O)(Oc2ccccc2)O1 (some centres undefined) | inactive: 99.3% |
| CC(=O)Nc1ccc([As](=O)(O)O)c(O)c1 | inactive: 106% |
| CC(=O)Nc1ccc(Oc2c([N+](=O)[O-])cc([N+](=O)[O-])cc2[N+](=O)[O-])cc1 | inactive: 101% |
| O=P1(Nc2nc3ccc(Cl)cc3s2)COc2ccccc2O1 (centres undefined) | inactive: 103% |
| CCOc1ccc(C2=NCC(CBr)S2)cc1 (centres undefined) | inactive: 108% |
| CC(C)(C)C(=O)NC(Sc1ccccc1)C(Cl)(Cl)Cl (centres undefined) | inactive: 94% |
| O=P(Nc1nccs1)(c1ccccc1)c1ccccc1 | inactive: 98.5% |
| CC(C)C(=O)NC(Sc1ccccc1)C(Cl)(Cl)Cl (centres undefined) | inactive: 104% |
| c1nnnn1CCn1cnnn1 | inactive: 93.8% |
| O=[As](O)(c1ccccc1)c1ccc(O)cc1 | inactive: 85.1% |
| O=[N+]([O-])c1ncn(CCn2cnc([N+](=O)[O-])n2)n1 | inactive: 101% |
| CC(=O)NC(SC(=S)N(C)C)C(Cl)(Cl)Cl (centres undefined) | inactive: 105% |
| O=C(OC1CN2CCC1CC2)c1cccc(Cl)c1 (centres undefined) | inactive: 92.6% |

| SMILES | binding response (% of control) |
| --- | --- |
| C(Cc1nn[nH]n1)Cc1nn[nH]n1 | inactive: 103% |
| Nc1ccc([As](=O)(O)c2ccc([N+](=O)[O-])cc2)cc1 | inactive: 93.8% |
| O=P(Nc1ccccn1)(c1ccc(Br)cc1)c1ccc(Br)cc1 | inactive: 88.4% |
| O=P(Nc1nc2ccccc2s1)(c1ccccc1)c1ccccc1 | inactive: 98.8% |
| C[C@H]1OP(=O)(Oc2ccccc2)[C@H](O)[C@H](O)[C@H]1N=[N+]=[N-] (some centres undefined) | inactive: 101% |
| O=[N+]([O-])c1ncn(CCn2ncnc2[N+](=O)[O-])n1 | inactive: 103% |
| CC(C)(C)C(=O)NC(Sc1ccncn1)C(Cl)(Cl)Cl (centres undefined) | inactive: 100% |
| O=C(O)CNc1ccc([As](=O)(O)O)cc1 | inactive: 121% |
| O=[N+]([O-])c1cccc(NC2=NCC(CBr)S2)c1 (centres undefined) | inactive: 103% |
| O=C(Nc1cc([As](=O)(O)O)ccc1O)c1ccccc1 | inactive: 111% |
| CCN(/C(=N/P(=O)(N1CCOCC1)N1CCOCC1)N1CCOCC1)c1ccc(OC)cc1 | inactive: 101% |
| Nc1ccc([As](=O)(O)c2ccc(N)cc2)cc1 | inactive: 104% |
| C[N+]1=C2C=CC=CC=C2SC12C([N+](=O)[O-])=CC([N+](=O)[O-])=C[C-]2[N+](=O)[O-] (centres undefined) | inactive: 89.7% |
| CC1CCN(C(=O)Oc2c(Cl)cc(Cl)c3cccnc23)CC1 | inactive: 93% |
| CC(C)=N/N=C(\N)N[N+](=O)[O-] | inactive: 96.4% |
| CN(C)C(=O)OCCc1n(C)cc[n+]1C | inactive: 101% |
| COc1ccc(C2=NCC(CBr)S2)cc1 (centres undefined) | inactive: 103% |
| Cc1ccc(NP(=O)(Oc2ccccc2)Oc2ccccc2)nc1 | inactive: 105% |
| O=[N+]([O-])c1cc([N+](=O)[O-])c(CCNc2ccccc2)c([N+](=O)[O-])c1 | inactive: 102% |
| CCc1nc2c(n1)c1c(non1O)c1c2no[n+]1[O-] | inactive: 104% |
| CC(=O)N1C2C3N(C(C)=O)C1C1N(C(C)=O)C(C(N1C(C)=O)N3C(C)=O)N2C(C)=O | inactive: 103% |
| O=[N+]([O-])c1cccc2n[nH]nc12 | inactive: 99.2% |
| Oc1ccccc1CNc1ccccn1 | inactive: 104% |
| O=C(NC(Sc1ccncn1)C(Cl)(Cl)Cl)c1ccccc1 (centres undefined) | inactive: 101% |
| Cc1c2non([O-])c-2c(C)[n+](=O)[n+]1[O-] | inactive: 93.3% |
| Nc1cc(N)c2nonc2c1[N+](=O)[O-] | inactive: 104% |

| SMILES | binding response (% of control) |
| --- | --- |
| CC(C)CC(=O)NC(Sc1ccc(Cl)cc1)C(Cl)(Cl)Cl (centres undefined) | inactive: 97.9% |
| Cc1ccc(N/C(=N/P(=O)(N2CCOCC2)N2CCOCC2)N2CCOCC2)cc1 | inactive: 103% |
| NC(=O)c1cc([N+](=O)[O-])cc([N+](=O)[O-])c1N | inactive: 102% |
| CN1CCCC(OC(=O)C(c2ccccc2)c2ccccc2)C1 (centres undefined) | inactive: 104% |
| Clc1ccc(Cl)c(NC2=NCC(CBr)S2)c1 (centres undefined) | inactive: 107% |
| COc1ccccc1OP(=O)(Nc1ccc(C)cn1)Oc1ccccc1OC | inactive: 102% |
| Cc1ccc(OP(=O)(Nc2nccs2)Oc2ccc(C)cc2)cc1 | inactive: 109% |
| Nc1cccc2ccc([As](=O)(O)O)cc12 | inactive: 94.9% |
| CCN(N=Nc1nonc1N)c1nonc1N | inactive: 97% |
| O=P(Nc1nc2ccc(Cl)cc2s1)(c1ccccc1)c1ccccc1 | inactive: 96.4% |
| CC(=O)Nc1ccc([As](=O)(O)O)cc1 | inactive: 89.6% |
| O=C(O)c1ccccc1[As](=O)(O)O | inactive: 96.3% |
| Cc1cc(SC(NC(=O)c2ccc(F)cc2)C(Cl)(Cl)Cl)ncn1 (centres undefined) | inactive: 99.1% |
| CCOP(=O)(Nc1ccccc1)OCC | inactive: 101% and inactive: 104% |
| Cc1ccc(NP(=O)(Oc2ccccc2F)Oc2ccccc2F)nc1 | inactive: 105% |
| ClCCSc1nnc(-c2cccnc2)o1 | inactive: 100% |
| CC(C)c1ccc(OP(=O)(Nc2ccccn2)Oc2ccccc2F)cc1 (centres undefined) | inactive: 77.3% |
| CC(C)NC(=O)NP(=O)(Oc1ccccc1)Oc1ccccc1 | inactive: 94.8% |
| CCN(CC)C(=S)SC(NC=O)C(Cl)(Cl)Cl (centres undefined) | inactive: 103% |
| O=[N+]([O-])c1cc([N+](=O)[O-])c(-c2ccn[nH]2)s1 | inactive: 100% |
| C[As](=O)(O)c1cccc(C(=O)O)c1 | inactive: 77% |
| O=[As](O)(c1ccc(O)cc1)c1ccccc1O | inactive: 98.1% |
| Cc1ccc(OP(=O)(Nc2ccc([N+](=O)[O-])cn2)Oc2ccc(C)cc2)cc1 | inactive: 97.7% |
| Cc1ccc2nc3c(c(C)c2c1)CC(C(Cl)Cl)S3 (centres undefined) | inactive: 105% |
| COc1ccc(N/C(=N/P(=O)(N2CCOCC2)N2CCOCC2)N2CCOCC2)cc1 | inactive: 101% |
| Cc1c2c(nc3ccccc13)SC(C(Cl)Cl)C2 (centres undefined) | inactive: 91.9% |

| SMILES | binding response (% of control) |
| --- | --- |
| O=C(OC1CN2CCC1CC2)C12CC3CC(CC(C3)C1)C2 (centres undefined) | inactive: 101% |
| Cc1cc(=O)[nH]c(N[N+](=O)[O-])n1 | inactive: 104% |
| COc1ccc2nc(NP(=O)(c3ccccc3)c3ccccc3)sc2c1 | inactive: 103% |
| COc1cc(I)ccc1[As](=O)(O)O | inactive: 107% |
| CCOC(=O)c1ccc(NC(=O)C(C)(CCl)SC)cc1 (centres undefined) | inactive: 101% |
| CCC(C)N(CC(C)C)C(=S)SC(NC(C)=O)C(Cl)(Cl)Cl (centres undefined) | inactive: 98.6% |
| COP1(=S)c2c(C)nn(CCC#N)c2N=C(c2ccc(F)cc2)N1C (centres undefined) | inactive: 102% |
| O=C(COc1ccccc1)OC1CN2CCC1CC2 (centres undefined) | inactive: 93.8% |
| CCOC(=O)Nc1cccc([As](=O)(O)O)c1 | inactive: 105% |
| Cc1cc(SC(NC=O)C(Cl)(Cl)Cl)ncn1 (centres undefined) | inactive: 99.9% |
| O=P(Nc1ccccn1)(c1cccc2ccccc12)c1cccc2ccccc12 | inactive: 101% |
| O=[N+]([O-])c1ccc(Nc2ccc(Oc3ccc([N+](=O)[O-])cc3[N+](=O)[O-])cc2)c([N+](=O)[O-])c1 | inactive: 96% |
| CCOC(=O)Nc1ccc([As](=O)(O)O)c(O)c1 | inactive: 97.4% |
| Cc1cc(SC(NC(=O)c2ccccc2)C(Cl)(Cl)Cl)nc(C(C)C)n1 (centres undefined) | inactive: 100% |
| O=P1(Nc2ncccn2)COc2ccccc2OC1 | inactive: 104% |
| Nc1cccc([As](=O)(O)c2ccccc2)c1 | inactive: 102% |
| O=[As](O)(c1cccs1)c1cccs1 | inactive: 97.8% |
| Cc1ccc(OCC(=O)OC2CN3CCC2CC3)cc1 (centres undefined) | inactive: 93.1% |
| O=P1(Nc2ccc(Br)cn2)COc2ccccc2OC1 | inactive: 103% |
| Cc1nn(-c2ccccc2)c2c1P(=O)(N1CCOCC1)N(C)C(c1ccccc1)=N2 (centres undefined) | inactive: 102% |
| CC1CCC(C(C)C)C(OP(=O)(Nc2ccccn2)c2ccccc2)C1 (centres undefined) | inactive: 100% |
| CN(C)C1(CNC(=O)c2ccc(S(C)(=O)=O)cc2)CCCCC1 | inactive: 106% |
| O=C(/C=C/c1ccccc1)OC1CN2CCC1CC2 (centres undefined) | inactive: 102% |
| CN(C(=O)Cc1ccc(Cl)c(Cl)c1)[C@@H]1CCCC[C@H]1N1CCCC1 | inactive: 100% |
| CC(C)/C=N\N=C(\N)N[N+](=O)[O-] | inactive: 94.1% |
| O=[As](O)(c1ccccc1Br)c1ccccc1Br | inactive: 97.8% |
